Permeability data for macrocyclic peptides

Data: CycPeptMPDB; original report Townsend et al. 2020, doi:10.26434/chemrxiv.13335941.v1.

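Lipid, pH, incubation time, direction and concentration are not recorded in the data file. The list need not hold all peptides of the study. Peptides that the database sets to -10, its floor, are left out.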

PAMPA measures passive passage through an artificial lipid membrane. Permeability is in 10^-6 cm/s, converted from the database's log10 values; higher is more permeable.

compound,PAMPA (10^-6 cm/s)
CC(C)C[C@@H]1C(=O)N(C)[C@@H](CC(C)C)C(=O)N2CCC[C@H]2C(=O)N(C)[C@H](CC(C)C)C(=O)N[C@@H](Cc2ccccc2)C(=O)N2CCC[C@H]2C(=O)N(C)[C@@H](C)C(=O)N1C,1.9
CC(C)C[C@@H]1NC(=O)[C@@H](CC(C)C)NC(=O)[C@@H](C)N(C)C(=O)[C@H](Cc2ccccc2)NC(=O)[C@@H](CC(C)C)NC(=O)[C@H]2CCCN2C1=O,5.5
CC(C)C[C@H]1C(=O)N(C)[C@@H](CC(C)C)C(=O)N2CCC[C@H]2C(=O)N(C)[C@@H](CC(C)C)C(=O)N[C@@H](Cc2ccccc2)C(=O)N2CCC[C@H]2C(=O)N[C@H](C)C(=O)N1C,5.2
CC(C)C[C@H]1NC(=O)[C@H](C)N(C)C(=O)[C@@H]2CCCN2C(=O)[C@H](Cc2ccccc2)NC(=O)CN(Cc2ccccc2)C(=O)[C@@H]2CCCN2C(=O)[C@@H](CC(C)C)NC1=O,0.42
CC(C)C[C@@H]1C(=O)N(C)[C@H](CC(C)C)C(=O)N2CCC[C@@H]2C(=O)N(C)[C@@H](CC(C)C)C(=O)N[C@@H](Cc2ccccc2)C(=O)N2CCC[C@@H]2C(=O)N[C@@H](Cc2ccccc2)CC(=O)N1C,6.9
CC(C)C[C@H]1C(=O)N[C@@H](Cc2ccccc2)C(=O)N[C@H](C)C(=O)N(C)[C@@H](CC(C)C)C(=O)N[C@@H](Cc2ccccc2)CC(=O)N2CCC[C@@H]2C(=O)N1C,5.1
CC(C)C[C@H]1NC(=O)[C@@H]2CCCN2C(=O)CN(Cc2ccccc2)C(=O)[C@H](CC(C)C)N(C)C(=O)[C@@H](C)NC(=O)[C@H]2CCCN2C(=O)[C@H](Cc2ccccc2)NC1=O,5.5
CC(C)C[C@@H]1C(=O)N2CCC[C@H]2C(=O)N(C)[C@H](CC(C)C)C(=O)N[C@@H](Cc2ccccc2)C(=O)N[C@H](C)C(=O)N(C)[C@@H](CC(C)C)C(=O)N1C,5.9
CC(C)C[C@@H]1NC(=O)[C@@H]2CCCN2C(=O)CN(Cc2ccccc2)C(=O)[C@@H](CC(C)C)N(C)C(=O)C[C@H](Cc2ccccc2)NC(=O)[C@@H]2CCCN2C(=O)[C@H](Cc2ccccc2)NC1=O,5.6
CC(C)C[C@@H]1C(=O)N[C@@H](Cc2ccccc2)CC(=O)N2CCC[C@H]2C(=O)N(C)[C@@H](CC(C)C)C(=O)N[C@@H](Cc2ccccc2)C(=O)N(C)[C@H](C)C(=O)N1C,6
CC(C)C[C@@H]1NC(=O)[C@@H](CC(C)C)N(C)C(=O)[C@@H](C)NC(=O)[C@H]2CCCN2C(=O)[C@H](Cc2ccccc2)NC(=O)CN(Cc2ccccc2)C(=O)[C@H]2CCCN2C1=O,4.7
CCCN1CC(=O)N[C@@H](CC(C)C)C(=O)N(C)[C@H](CC(C)C)C(=O)N2CCC[C@@H]2C(=O)N(Cc2ccccc2)CC(=O)N[C@@H](Cc2ccccc2)C(=O)N2CCC[C@H]2C1=O,1.2
CC(C)C[C@@H]1C(=O)N[C@@H](Cc2ccccc2)C(=O)N2CCC[C@H]2C(=O)N[C@@H](Cc2ccccc2)CC(=O)N(C)[C@@H](CC(C)C)C(=O)N[C@@H](Cc2ccccc2)CC(=O)N2CCC[C@H]2C(=O)N1C,1.1
CC(C)C[C@H]1NC(=O)[C@H](C)NC(=O)[C@H]2CCCN2C(=O)[C@H](Cc2ccccc2)NC(=O)[C@H](CC(C)C)N(C)C(=O)[C@H]2CCCN2C(=O)[C@H](CC(C)C)N(C)C1=O,1.9
CCCN1CC(=O)N(C)[C@@H](CC(C)C)C(=O)N(C)[C@H](CC(C)C)C(=O)N2CCC[C@H]2C(=O)N(C)[C@@H](CC(C)C)C(=O)N[C@@H](Cc2ccccc2)C1=O,15
CC(C)C[C@@H]1C(=O)N(C)[C@@H](CC(C)C)C(=O)N2CCC[C@H]2C(=O)N(C)[C@H](CC(C)C)C(=O)N[C@@H](Cc2ccccc2)C(=O)N[C@@H](Cc2ccccc2)CC(=O)N1C,5.6
CC(C)C[C@H]1NC(=O)[C@H](C)N(C)C(=O)[C@@H]2CCCN2C(=O)[C@H](Cc2ccccc2)NC(=O)[C@H](CC(C)C)N(C)C(=O)[C@@H]2CCCN2C(=O)CN(Cc2ccccc2)C1=O,0.81
CC(C)C[C@H]1NC(=O)[C@H](C)NC(=O)[C@H](Cc2ccccc2)NC(=O)[C@H](CC(C)C)N(C)C(=O)[C@@H]2CCCN2C(=O)[C@H](CC(C)C)N(C)C1=O,5.2
CC(C)C[C@H]1NC(=O)[C@@H]2CCCN2C(=O)CN(Cc2ccccc2)C(=O)[C@H](CC(C)C)N(C)C(=O)[C@@H](C)NC(=O)[C@@H]2CCCN2C(=O)[C@H](Cc2ccccc2)NC1=O,0.48
CC(C)C[C@@H]1C(=O)N[C@@H](Cc2ccccc2)C(=O)N2CCC[C@@H]2C(=O)N(C)[C@@H](C)C(=O)N(Cc2ccccc2)CC(=O)N[C@H](CC(C)C)C(=O)N2CCC[C@H]2C(=O)N1C,3.6
CC(C)C[C@@H]1C(=O)N[C@@H](Cc2ccccc2)C(=O)N2CCC[C@@H]2C(=O)N(C)[C@H](C)C(=O)N[C@H](CC(C)C)C(=O)N[C@H](CC(C)C)C(=O)N2CCC[C@H]2C(=O)N1C,1.7

2 of these entries, quoted again:

compound,PAMPA (10^-6 cm/s)
CC(C)C[C@H]1NC(=O)[C@H](C)N(C)C(=O)[C@@H]2CCCN2C(=O)[C@H](Cc2ccccc2)NC(=O)[C@H](CC(C)C)N(C)C(=O)[C@@H]2CCCN2C(=O)CN(Cc2ccccc2)C1=O,0.81
CC(C)C[C@@H]1C(=O)N2CCC[C@H]2C(=O)N(C)[C@H](CC(C)C)C(=O)N[C@@H](Cc2ccccc2)C(=O)N[C@H](C)C(=O)N(C)[C@@H](CC(C)C)C(=O)N1C,5.9